Measured values reported in patent US12655398B2, “Multipartite luciferase” (Promega Corporation, priority 2018, dated 2026).

Assays:
[1] = system: LgTrip 3546 and SmTrip10 pep86; assay: SmTrip9 peptide titration (Kd, Bmax) with LgTrip 3546 and constant SmTrip10 peptide; format: binding; details: constant SmTrip10 pep86, LgTrip 3546
Experimental: (§1) LgTrip 3546 (SEQ ID NO: 51) was diluted to 200 nM in TBS+0.01% BSA+0.01% Tergitol, and serial dilutions were prepared (100 ul into 900 ul) in TBS+0.01% BSA+0.01% Tergitol. 2 nM polypeptide samples were diluted 1:10 into TBS+0.01% BSA+0.01% Tergitol (500 into 4.5 ml).
A 2× dilution series was prepared of each SmTrip9 peptide in TBS+0.01% BSA+0.01% Tergitol+100 uM of SmTrip10 pep86 (SEQ ID NO: 25) starting at 20 uM. 50 ul of diluted LgTrip 3546 (SEQ ID NO: 51) was combined with 50 ul of each peptide titration. Reactions were incubated for 10 minutes at room temperature. 100 μl of TBS+0.01% BSA+0.01% Tergitol+20 uM furimazine was added, the reaction was incubated for 10 more minutes, and read on a GMM+.
Experiments were conducted during development of embodiments herein to determine the how the affinity of β9-like (e.g., SmTrip9) peptides are impacted in the presence of constant concentrations of various β10-like (e.g., SmTrip10) peptides with LgTrip 3546 (SEQ ID NO: 51) (FIG. 29). […] The reactions were incubated for 10 minutes at room temperature, 100 μl of TBS+0.01% BSA+0.01% Tergitol+20 uM furimazine was added, and the reactions were incubated for another 10 minutes and then read on GMM+. […]

[2] = system: LgTrip 3546; assay: SmTrip10 pep86 (HiBiT) titration with constant SmTrip9 peptides; format: binding; details: SmTrip10 pep86 titration with saturating SmTrip9 variant
Experimental: as §1
A 2× dilution series was prepared of SmTrip10 pep86 (SEQ ID NO: 25) in TBS+0.01% BSA+0.01% Tergitol+20 uM of SmTrip9-like peptides starting at 100 uM. 50 ul of diluted LgTrip 3546 was combined with 50 ul of each peptide titration. Reactions were incubated for 10 minutes at room temperature. 100 μl of TBS+0.01% BSA+0.01% Tergitol+20 uM furimazine was added, reaction was incubated for 10 more minutes, and then read on GMM+.
LgTrip 3546 (SEQ ID NO: 51) polypeptide was diluted to 0.2 nM in TBS+0.01% BSA+0.01% Tergitol. 20 uM SmTrip9-like peptide solutions were prepared in TBS+0.01% BSA+0.01% Tergitol for each SmTrip9-like peptide to be tested. 100 uM solutions of SmTrip10 pep86 was added to each SmTrip9-like peptide solution. 2× serial dilutions were prepared of SmTrip10 pep86 using each SmTrip9-like peptide solution as a diluent. Peptide dilutions and LgTrip 3546 solution were combined, 1:1, and incubated for 10 minutes. TBS+0.01% BSA+0.01% Tergitol+20 uM furimazine detection reagent was added (1:1), and luminescence was detected.
LgTrip 3546 (SEQ ID NO: 51) polypeptide was diluted to 0.2 nM in TBS+0.01% BSA+0.01% Tergitol. 20 uM SmTrip9-like peptide solutions were prepared in TBS+0.01% BSA+0.01% Tergitol for SmTrip9-like peptide to be tested. 100 uM solutions of SmTrip10 pep86 (SEQ ID NO: 25) was added each SmTrip9-like solution. 2× serial dilutions were prepared of SmTrip10 pep86 using each SmTrip9-like peptide solution as a diluent. Peptide dilutions and LgTrip 3546 solution were combined 1:1 and incubated for 10 minutes. TBS+0.01% BSA+0.01% Tergitol+20 uM furimazine detection reagent was added (1:1), and luminescence was detected.
LgTrip 3546 (SEQ ID NO: 51) was diluted to 0.2 nM in TBS+0.01% BSA+0.01% Tergitol. 20 uM SmTrip9-like peptide solutions were prepared in TBS+0.01% BSA+0.01% Tergitol. SmTrip10 pep86 was added to 100 uM in each SmTrip9-like peptide solution. 2× serial dilutions of each SmTrip 10 pep86 (SEQ ID NO: 25) were prepared using the SmTrip9-like peptide solutions as a diluent. Peptide dilutions were combined with LgTrip 3546 (SEQ ID NO: 51) solution 1:1 and incubated for 10 minutes. TBS+0.01% BSA+0.01% Tergitol+20 uM Furimazine (Fz) detection reagent was added, 1:1. Luminescence was read at 10 min.

DGSMLFRVTINS [SmTrip9 pep293] was tested, and the “Affinity of SmTrip9 peptide compared to SmTrip9 pep286” value [1] was “decrease in affinity compared to SmTrip9 pep286” and the “Effect of SmTrip9 peptide on affinity of SmTrip10 pep86 for LgTrip 3546” value (“Effect of SmTrip9 peptide” below) [2] was “decrease affinity of SmTrip10 pep86”.
PDGSMLFRVTINSV [SmTrip9 pep299] was tested, and the “Effect of SmTrip9 peptide” value [2] was “decrease the affinity of SmTrip10 pep86”.
DGSMLFRVTINSV [SmTrip9 pep298] was tested, and the “Effect of SmTrip9 peptide” value [2] was “decrease the affinity of SmTrip10 pep86”.
In the case of PDGSMLFRVTINS [SmTrip9 pep294], the “Affinity of SmTrip9 peptide compared to SmTrip9 pep286” value [1] is reported as “decrease in affinity compared to SmTrip9 pep286” and the “Effect of SmTrip9 peptide” value [2] is reported as “decrease affinity of SmTrip10 pep86”.
